The record followed here is patent publication US20240024347A1, “PRODRUGS OF 6-MERCAPTOPURINE” (The Johns Hopkins University, priority 2020, published 2024).

In the data set the test system is healthy NSG mice. To be noted: 20 mg/kg, 5 d/week, i.p.; decreased white blood cell and platelet count compared to vehicle at study termination. The procedure: Animal weights and body condition scores were measured three times per week. After twenty one days, surviving mice were euthanized and blood collected for clinical chemistry measurements (complete blood count with differential, clinical chemistries). […] 80% of mice survived >2 weeks in the MK-905 40 mg/kg group, and 100% of mice survived the study in the vehicle and MK-905 20 mg/kg groups.

`Sc1ncnc2nc[nH]c12` [6-MP, 6-mercaptopurine]: the “Myelosuppression (marker for active metabolite)” value is reported as “noted”.
